One data set concerns the target α4β2 nAChR (Rattus norvegicus (Rat), UniProt P09483+P12390). The experiment in a line: Inhibition of [3H]epibatidine binding at the α4β2 nAChR in male rat cerebral cortex. The settings on record: for Ki: read-out: αβ [3H]Epibatidine (Ki), tested form: HCl.
For data set [1], the system named is mice. The experiment in a line: Tail-flick test (antinociception). Type of data set: in vivo, mouse. As to conditions: @ 10 mg/kg, sc. On the technique in general: In hot-plate and tail-flick tests a longer latency is read as antinociception.
Data set [2] relates to mice. The experiment in a line: Hot-plate test (antinociception). As to conditions: @ 10 mg/kg, sc. Type of data set: in vivo, mouse.
Data set [3] has as its system mice. The experiment in a line: Hypothermia (rectal temperature). The settings on record: sc; for Hypothermia, % effect at dose: @ 10 mg/kg. Type of data set: in vivo, mouse.
In data set [4] the test system is mice. The experiment in a line: Antagonism of nicotine antinociception, tail-flick. Type of data set: in vivo, mouse. As to conditions: for AD50 Tail-Flick: mice pretreated sc 10 min before nicotine 2.5 mg/kg sc.
Data set [5] has as its system mice. The experiment in a line: Antagonism of nicotine antinociception, hot-plate. Type of data set: in vivo, mouse. The settings on record: for AD50 Hot-Plate: mice pretreated sc 10 min before nicotine 2.5 mg/kg sc; for Antagonism Hot-Plate, % at dose: @ 10000 μg/kg, before nicotine 2.5 mg/kg sc.
The test system of data set [6] is mice. The data set is described as follows: Spontaneous activity (photocell activity cages). As to conditions: sc; for Spontaneous Activity, % effect at dose: @ 10 mg/kg. Type of data set: in vivo, mouse.
The next data set deals with Male ICR adult mice. The data set is described as follows: Nicotine conditioned place preference (CPP) test. As to conditions: mouse, in vivo.
The subject of data set [7] is Male Sprague-Dawley rats. As to conditions: s.c., compound alone.
The test system of data set [8] is Male Sprague-Dawley rats.

By UniProt entry, the sequences of proteins in these tests, tags left out. Residues count along the entry.
UniProt P09483, 31-630 limits assumed: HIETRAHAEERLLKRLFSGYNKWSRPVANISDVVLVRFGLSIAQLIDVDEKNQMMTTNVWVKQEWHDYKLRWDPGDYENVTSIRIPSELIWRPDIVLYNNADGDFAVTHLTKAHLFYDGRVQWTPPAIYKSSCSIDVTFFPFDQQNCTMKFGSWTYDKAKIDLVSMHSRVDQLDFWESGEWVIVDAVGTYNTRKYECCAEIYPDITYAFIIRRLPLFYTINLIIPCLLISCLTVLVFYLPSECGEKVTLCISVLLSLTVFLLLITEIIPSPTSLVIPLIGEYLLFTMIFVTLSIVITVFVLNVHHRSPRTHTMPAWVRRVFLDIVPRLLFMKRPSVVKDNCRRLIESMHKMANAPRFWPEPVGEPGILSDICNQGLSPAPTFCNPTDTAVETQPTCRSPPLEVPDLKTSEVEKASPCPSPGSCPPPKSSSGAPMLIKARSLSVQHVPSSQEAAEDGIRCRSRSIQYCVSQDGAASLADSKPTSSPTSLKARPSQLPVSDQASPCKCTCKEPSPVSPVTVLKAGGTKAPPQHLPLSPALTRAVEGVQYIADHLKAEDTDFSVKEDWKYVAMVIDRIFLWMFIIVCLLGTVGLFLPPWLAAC
UniProt P12390, 25-500 limits assumed: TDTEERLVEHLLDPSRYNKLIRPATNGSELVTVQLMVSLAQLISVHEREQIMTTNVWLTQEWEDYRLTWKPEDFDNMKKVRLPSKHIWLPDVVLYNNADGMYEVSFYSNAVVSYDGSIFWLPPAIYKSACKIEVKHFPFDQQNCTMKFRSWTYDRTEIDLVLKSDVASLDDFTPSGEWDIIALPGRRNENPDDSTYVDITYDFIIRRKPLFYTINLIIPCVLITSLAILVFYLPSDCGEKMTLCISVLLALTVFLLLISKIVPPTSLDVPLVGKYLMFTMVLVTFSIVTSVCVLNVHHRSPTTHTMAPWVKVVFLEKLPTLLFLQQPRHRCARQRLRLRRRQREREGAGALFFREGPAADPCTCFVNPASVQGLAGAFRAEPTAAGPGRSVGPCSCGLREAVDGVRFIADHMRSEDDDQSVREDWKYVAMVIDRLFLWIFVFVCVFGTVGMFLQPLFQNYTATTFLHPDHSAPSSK

The values that follow come from patent US9150581B2, “Nicotinic receptor compounds” (priority 2011, dated 2015).

The structures appear in SMILES notation.

A word on the Ki: it is the dissociation constant of the complex between target and ligand, obtained from inhibition or displacement.

As to `O=[N+]([O-])c1cccc(-c2cc(C3CC4CCC3N4)cnc2F)c1` (stereo not shown), the “Hill slope, αβ [3H]Epibatidine binding” value on α4β2 nAChR is recorded as “(1.04 ± 0.004)”. For the same compound, the “Tail-Flick, % effect at dose” value in the data set on mice [1] was 3% @ 10. For the same compound, the “Hot-Plate, % effect at dose” value with mice [2] came out at 20% @ 10. In addition, in the data set with mice [3], the “Hypothermia, % effect at dose” value is 0% @ 10. The “AD50 Tail-Flick” value with mice [4] is 0.0005 mg/kg. In the data set on mice [5], the “AD50 Hot-Plate” value worked out at 0.13 mg/kg.

Consider `NS(=O)(=O)c1ccc(-c2cc([C@H]3C[C@@H]4CC[C@H]3N4)cnc2F)cc1` (relative stereo), for which the Ki on α4β2 nAChR worked out at 30 pM. Also, in the data set on mice [1] (tested form: HCl), the “Tail-Flick, % effect at dose” value is 3% @ 10. Further, in the data set on mice [2] (tested form: HCl), the “Hot-Plate, % effect at dose” value came out at 15% @ 10. For the same compound, the “Hypothermia, % effect at dose” value in the data set with mice [3] (tested form: HCl) stood at 0% @ 10. Further, the “ED50 Spontaneous Activity” value with mice [6] (tested form: HCl) stood at 4.2 mg/kg. Further, in the data set with mice [4] (tested form: HCl), the “AD50 Tail-Flick” value turned out to be 1.6 mg/kg. The “Antagonism Hot-Plate, % at dose” value in the data set on mice [5] (tested form: HCl) is on record as 50% @.

`O=S(=O)(c1ccc(-c2cc([C@H]3C[C@@H]4CC[C@H]3N4)cnc2F)cc1)C(F)(F)F` (relative stereo): the Ki on α4β2 nAChR is 940 pM. In the data set on mice [1] (tested form: HCl), the “Tail-Flick, % effect at dose” value was found to be 4% @ 10. The “Hot-Plate, % effect at dose” value in the data set with mice [2] (tested form: HCl) worked out at 19% @ 10. In addition, in the data set with mice [3] (tested form: HCl), the “Hypothermia, % effect at dose” value was 0% @ 10. Also, the “Spontaneous Activity, % effect at dose” value with mice [6] (tested form: HCl) is given as 5% @ 10. Moreover, the “AD50 Tail-Flick” value in the data set with mice [4] (tested form: HCl) came to 0.0009 mg/kg. The “AD50 Hot-Plate” value in the data set with mice [5] (tested form: HCl) amounted to 0.01 mg/kg.

As for `CS(=O)(=O)c1ccc(-c2cc(C3CC4CCC3N4)cnc2F)cc1` (single isomer, unassigned), the “Tail-Flick, % effect at dose” value in the data set on mice [1] is given as 3% @ 10. Moreover, the “Hot-Plate, % effect at dose” value in the data set with mice [2] turned out to be 10% @ 10. Also, the “Hypothermia, % effect at dose” value in the data set with mice [3] worked out at 0% @ 10. Further, the “Spontaneous Activity, % effect at dose” value with mice [6] worked out at 0% @ 10. Moreover, in the data set with mice [4], the “AD50 Tail-Flick” value was 0.00011 mg/kg. Further, the “AD50 Hot-Plate” value in the data set on mice [5] amounted to 2.76 mg/kg.

As to `O=[N+]([O-])c1ccc(-c2cc(C3CC4CCC3N4)cnc2F)cc1` (single isomer, unassigned), the “Hill slope, αβ [3H]Epibatidine binding” value at α4β2 nAChR is given as “(0.68 ± 0.09)”. Further, in the data set on mice [1], the “Tail-Flick, % effect at dose” value is on record as 10% @ 10. In addition, the “Hot-Plate, % effect at dose” value in the data set on mice [2] turned out to be 22% @ 10. Also, in the data set with mice [3], the “ED50 Hypothermia” value is listed as 2.2 mg/kg. In addition, in the data set with mice [6], the “ED50 Spontaneous Activity” value came out at 0.57 mg/kg. The “Antagonism Tail-Flick, % at dose” value in the data set on mice [4] (@ 10000 μg/kg, before nicotine 2.5 mg/kg sc) is 0% @ 10000. The “AD50 Tail-Flick” value in the data set with mice [4] turned out to be 0.002 mg/kg. The “AD50 Tail-Flick” value in the data set with mice [4] (listed as (±)-102) is 0.003 mg/kg. Also, in the data set with mice [5], the “Antagonism Hot-Plate, % at dose” value worked out at 0% @ 10000 and the “AD50 Hot-Plate” value is 0.18 mg/kg. In addition, the “AD50 Hot-Plate” value with mice [5] (listed as (±)-102) came out at 0.12 mg/kg. Moreover, in the data set on Male ICR adult mice, the “Blockade of nicotine CPP” value is listed as “dose-dependently blocked nicotine CPP” and the “Preference or aversion induced by compound itself in CPP” value is “did not induce significant preference or aversion”. For the same compound, in the data set with Male Sprague-Dawley rats [7], the “Effect on blood pressure” value was “sustained increases in blood pressure” and the “Effect on heart rate” value is “minimal effects on heart rate”. Further, the Nicotine-appropriate responding result in the data set on Male Sprague-Dawley rats [8] (at doses that suppressed rates of responding) was “around 30%”. In addition, in the data set on Male Sprague-Dawley rats [8] (compound alone), the “Effect on rates of responding” value was “suppressed rates of responding”.
